# Measurements taken from PubChem BioAssay AID1415 (NMMLSC, 2008).
# By UniProt entry, the sequences of proteins in these tests, tags left out.
# UniProt P09471, whole entry: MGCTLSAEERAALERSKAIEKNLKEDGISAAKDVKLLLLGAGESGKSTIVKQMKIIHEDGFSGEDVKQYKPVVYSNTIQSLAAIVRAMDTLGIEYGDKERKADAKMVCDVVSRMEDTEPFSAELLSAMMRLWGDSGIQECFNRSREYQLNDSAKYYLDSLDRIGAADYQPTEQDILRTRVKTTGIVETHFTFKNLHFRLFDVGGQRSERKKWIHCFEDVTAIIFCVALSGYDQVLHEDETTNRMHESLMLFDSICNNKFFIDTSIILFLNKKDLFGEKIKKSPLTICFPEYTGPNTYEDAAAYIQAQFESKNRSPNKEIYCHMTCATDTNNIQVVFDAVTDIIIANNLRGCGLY
# Only a part is listed here, and it is no random draw. Some structures show a salt or complex split into parts, the way the source records it. Active and inactive are the calls of the source. Cut-off read from the data, not from the text of the source: active = binding response below about 49% or above about 150%; inactive = in between.
# Target: Guanine nucleotide-binding protein G(o) subunit alpha (Homo sapiens) (UniProt P09471)
# Test: RGS4-Galphao interaction inhibitors and enhancers – biochemical, multiplexed bead flow cytometry, primary screen (AID 1415);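 note: fluorescent Galphao activated with aluminum fluoride binding bead-coupled RGS4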
# Details: at 10 µM, actives lie on both sides
row,SMILES,binding response (% of control)
1,COc1ccccc1OP(C)(=O)Nc1ccccc1 (stereo unspecified),inactive: 106%
2,CP(=O)(Nc1ccccc1Br)Oc1ccccc1 (stereo unspecified),inactive: 104%
3,CP(=S)(Nn1cnnc1)Oc1ccccc1 (stereo unspecified),inactive: 117%
4,CP(=O)(Nc1ccccn1)Oc1ccc(Cl)cc1 (stereo unspecified),inactive: 102%
5,CCOP(C)(=S)SCC(=O)NC(C)C(=O)O (stereo unspecified),inactive: 92.2%
6,CCOC(=O)c1ccc(NP(C)(=O)Oc2ccc(OC)cc2)cc1 (stereo unspecified),inactive: 105%
7,CCc1ccc(OP(C)(=O)N2CCN(c3ccc([N+](=O)[O-])cc3)CC2)cc1 (stereo unspecified),inactive: 104%
8,CP(=O)(NC(=O)Nc1ccccc1)Oc1ccccc1 (stereo unspecified),inactive: 98.5%
9,Cc1cc(C)cc(OP(C)(=O)Nc2ccc(SC(F)(F)F)cc2)c1 (stereo unspecified),inactive: 102%
10,CP(=O)(Nc1ccc(SC(F)(F)F)cc1)Oc1ccc(Cl)cc1 (stereo unspecified),inactive: 106%
11,Cc1cccc(C)c1OP(C)(=O)Nc1ccc(SC(F)(F)F)cc1 (stereo unspecified),inactive: 95.7%
12,CP(=O)(Oc1ccccc1)OC(c1ccccc1)C(F)(F)F (stereo unspecified),inactive: 101%
13,CCN(CC)CCCOC(=O)C(O)(c1ccccc1)c1ccccc1,inactive: 102%
14,COc1ccccc1OP(C)(=O)Nc1cc(Cl)ccc1C (stereo unspecified),inactive: 102%
15,COc1ccc(OP(C)(=O)Nc2cccc(F)c2)cc1 (stereo unspecified),inactive: 94.2%
16,Cc1cc(C)cc(OP(C)(N)=O)c1 (stereo unspecified),inactive: 101%
17,CCOC(=O)c1ccc(NP(C)(=O)Oc2ccccc2)cc1 (stereo unspecified),inactive: 103%
18,COc1ccccc1OP(C)(=O)Nc1ccc(C)cc1 (stereo unspecified),inactive: 94.9%
19,Cc1ccc(NP(C)(=O)Oc2ccccc2)c(C)c1 (stereo unspecified),inactive: 103%
20,CC(C)(C)c1ccc(OP(C)(=O)Nc2ccc(SC(F)(F)F)cc2)cc1 (stereo unspecified),inactive: 104%
21,Cc1cccc(C)c1OP(C)(N)=O (stereo unspecified),inactive: 102%

row,SMILES,binding response (% of control)
1,O=[N+]([O-])c1ccc2c(c1)C=Nc1ccccc1O2,inactive: 112%
2,CC1=NCCc2c1[nH]c1ccccc21.O=[N+]([O-])c1cc([N+](=O)[O-])c(O)c([N+](=O)[O-])c1,inactive: 112%
3,O=C(O)c1cccc(Nc2c([N+](=O)[O-])cc([N+](=O)[O-])cc2[N+](=O)[O-])c1,inactive: 102%
4,CP(=O)(Nc1cccc(Br)c1)Oc1ccccc1 (stereo unspecified),inactive: 100%
5,Cc1cc(C)cc(OP(C)(=O)Nc2ccccn2)c1 (stereo unspecified),inactive: 104%
6,Cc1ccc(C)c(NP(C)(=O)Oc2ccccc2)c1 (stereo unspecified),inactive: 83.4%
7,Cc1cc(C)cc(OP(C)(=O)Nc2ccc(C)cc2C)c1 (stereo unspecified),inactive: 98.3%
8,CCOC(=O)c1ccc(NP(C)(=O)Oc2cc(C)cc(C)c2)cc1 (stereo unspecified),inactive: 105%
9,COc1ccccc1OP(C)(=O)Nc1cccc(Br)c1 (stereo unspecified),inactive: 99.7%
10,Cc1nc2ccc3ccccc3c2s1.O=[N+]([O-])c1cc([N+](=O)[O-])c(O)c([N+](=O)[O-])c1,inactive: 99.2%
11,O=[N+]([O-])c1cc([N+](=O)[O-])c(-n2nnc3ccccc32)c([N+](=O)[O-])c1,inactive: 94.4%
12,CP(=O)(Nc1ccc(SC(F)(F)F)cc1)Oc1ccccc1 (stereo unspecified),inactive: 98.1%
13,CCCOc1ccc(NP(C)(=O)Oc2ccc(Cl)cc2)cc1 (stereo unspecified),inactive: 101%
14,CN1CCCCC1COC(=O)C1(O)c2ccccc2CCc2ccccc21 (stereo unspecified),inactive: 104%
15,COc1ccccc1OP(C)(=O)Nc1c(C)cccc1C (stereo unspecified),inactive: 98.5%
16,O=[N+]([O-])c1cc([N+](=O)[O-])c(Nc2nnnn2CCO)c([N+](=O)[O-])c1,inactive: 98.6%
17,CCOC(=O)C(CC)C1=NC(C)(C)Cc2ccccc21.O=[N+]([O-])c1cc([N+](=O)[O-])c(O)c([N+](=O)[O-])c1 (stereo unspecified),inactive: 99.8%
18,Cc1cc(-c2cccc3ccccc23)c(C)cn1.O=[N+]([O-])c1cc([N+](=O)[O-])c(O)c([N+](=O)[O-])c1,inactive: 116%
19,O=[N+]([O-])c1cc([N+](=O)[O-])c(NCC2CCS(=O)(=O)C2)c([N+](=O)[O-])c1 (stereo unspecified),inactive: 97.5%
20,O=[N+]([O-])c1ccc(OP2(=O)COCCO2)cc1 (stereo unspecified),inactive: 94.7%
21,COc1ccc(NP(C)(=O)Oc2ccccc2OC)cc1 (stereo unspecified),inactive: 104%

row,SMILES,binding response (% of control)
1,CN(C)CCOC(=O)C(O)(c1ccccc1)C1CCCCC1 (stereo unspecified),inactive: 103%
2,COc1ccc(OP(C)(=O)Nc2cccc(Br)c2)cc1 (stereo unspecified),inactive: 97.7%
3,Cc1ccccc1NP(C)(=O)Nc1ccccc1C,inactive: 102%
4,CP(=O)(Nc1ccc2c(c1)OCCO2)Oc1ccccc1 (stereo unspecified),inactive: 88.4%
5,CCOP(C)(=S)SCC(=O)NC(C)(CC)C(=O)O (stereo unspecified),inactive: 104%
6,CP(=O)(Nc1ccc(SC(F)(F)F)cc1)Oc1ccc(F)cc1 (stereo unspecified),inactive: 96.6%
7,COc1ccc2c(c1O)-c1c(O)c(OC)cc3c1[C@H](C2)[N+](C)(C)CC3.O=[N+]([O-])c1cc([N+](=O)[O-])c([O-])c([N+](=O)[O-])c1[O-],inactive: 95.7%
8,O=C(OCCN1CCN(CCOCc2ccccc2)CC1)C(O)(c1ccccc1)c1ccccc1,inactive: 97.9%
9,O=C(OC1CN2CCC1CC2)c1ccc([N+](=O)[O-])cc1 (stereo unspecified),inactive: 101%
10,CC(C)c1ccc(OP(C)(=O)Nc2ccc(SC(F)(F)F)cc2)cc1 (stereo unspecified),inactive: 101%
11,CP(=O)(Nc1ccccc1F)Oc1ccccc1 (stereo unspecified),inactive: 89.6%
12,CCCCCOc1ccc(NP(C)(=O)Oc2ccc(Cl)cc2Cl)cc1 (stereo unspecified),inactive: 94.9%
13,CP(=O)(Nc1ccccc1)Oc1ccc(F)cc1 (stereo unspecified),inactive: 99.4%
14,COc1ccc(OP(C)(=O)Nc2ccc(SC(F)(F)F)cc2)cc1 (stereo unspecified),inactive: 98.2%
15,CCOC(=O)c1ccc(NP(C)(=O)Oc2ccc(F)cc2)cc1 (stereo unspecified),inactive: 98.2%
16,CP(=O)(OCCOc1ccccc1)OCCOc1ccccc1,inactive: 101%
17,CP(=O)(Nc1ccc(Cl)cc1Cl)Oc1ccccc1 (stereo unspecified),inactive: 90.2%
18,Cc1nc2ccc3ccccc3c2o1.O=[N+]([O-])c1cc([N+](=O)[O-])c(O)c([N+](=O)[O-])c1,inactive: 103%
19,COc1ccc(OP(C)(=O)Nc2ccccc2Br)cc1 (stereo unspecified),inactive: 99.6%
